The values below come from PubChem BioAssay AID485346 (Sanford-Burnham Center for Chemical Genomics, 2010).

Sequences of proteins named here, by UniProt entry; tags and fusion partners are left off. A change or cut given only in a name is not applied to a line headed by its entry.
UniProt O15151: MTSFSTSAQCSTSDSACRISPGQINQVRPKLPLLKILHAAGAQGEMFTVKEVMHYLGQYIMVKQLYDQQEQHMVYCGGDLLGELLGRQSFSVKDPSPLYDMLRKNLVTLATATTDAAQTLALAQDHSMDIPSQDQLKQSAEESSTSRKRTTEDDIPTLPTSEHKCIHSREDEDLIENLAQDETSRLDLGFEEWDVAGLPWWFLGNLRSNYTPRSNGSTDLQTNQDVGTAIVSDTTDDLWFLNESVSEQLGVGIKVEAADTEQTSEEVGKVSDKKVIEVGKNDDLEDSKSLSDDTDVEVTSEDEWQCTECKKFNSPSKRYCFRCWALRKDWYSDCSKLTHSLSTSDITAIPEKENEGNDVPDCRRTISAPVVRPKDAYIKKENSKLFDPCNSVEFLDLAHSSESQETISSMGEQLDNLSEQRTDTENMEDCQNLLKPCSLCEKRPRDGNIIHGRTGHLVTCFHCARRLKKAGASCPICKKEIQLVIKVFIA
UniProt Q00987, whole entry, looked up: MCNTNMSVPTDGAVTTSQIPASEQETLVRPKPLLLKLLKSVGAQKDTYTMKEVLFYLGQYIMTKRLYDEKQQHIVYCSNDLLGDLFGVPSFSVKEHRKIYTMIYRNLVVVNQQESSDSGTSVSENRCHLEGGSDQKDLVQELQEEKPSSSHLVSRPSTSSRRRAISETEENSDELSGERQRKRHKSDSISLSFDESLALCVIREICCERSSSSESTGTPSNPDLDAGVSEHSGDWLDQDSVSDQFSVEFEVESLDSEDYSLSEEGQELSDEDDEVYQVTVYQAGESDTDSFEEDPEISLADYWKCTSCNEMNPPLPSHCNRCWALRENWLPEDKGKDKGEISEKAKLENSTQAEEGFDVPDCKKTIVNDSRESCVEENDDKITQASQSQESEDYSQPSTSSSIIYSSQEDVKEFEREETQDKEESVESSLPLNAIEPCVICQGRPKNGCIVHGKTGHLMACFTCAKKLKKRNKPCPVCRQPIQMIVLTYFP

Only a part is listed here, and it is no random draw. The source made the active and inactive calls.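 How the source made its calls: active means inhibition of at least 50% at 8 µM in the primary screen; inactive means the rest.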

The assay has as its target Protein Mdm4 (Homo sapiens) + E3 ubiquitin-protein ligase Mdm2 (Homo sapiens) (UniProt O15151+Q00987). Put plainly: disruptors of Mdm2/MdmX RING complex – cell-based, luminescence, split luciferase, SaOS-2, uHTS, primary screen (AID 485346). Particulars: SaOS-2 split-luciferase Mdm2/MdmX complementation, at 8 µM, stronger effect = higher value.
One may read the inhibition as the relative decrease from the control value, in per cent. Consider `COc1ccc(N/C(=N/P(=O)(N2CCOCC2)N2CCOCC2)N2CCOCC2)cc1`, for which the inhibition was inactive: -0.746%.

As to `COc1cc(I)ccc1[As](=O)(O)O`, the inhibition was inactive: 3.96%.

For `COc1ccc2nc(NP(=O)(c3ccccc3)c3ccccc3)sc2c1`, the inhibition is inactive: 19.1%.

Turning to `Cc1c2c(nc3ccccc13)SC(C(Cl)Cl)C2` (stereo unspecified), the inhibition was inactive: 11.7%.

On to `Cc1cc(=O)[nH]c(N[N+](=O)[O-])n1`, for which the inhibition was inactive: -25.6%.

As for `O=C(OC1CN2CCC1CC2)C12CC3CC(CC(C3)C1)C2` (stereo unspecified), the inhibition was inactive: 1.09%.

As to `O=[N+]([O-])c1cc([N+](=O)[O-])c(-c2ccn[nH]2)s1`, the inhibition was inactive: 41%.

As to `CC(C)NC(=O)NP(=O)(Oc1ccccc1)Oc1ccccc1`, the inhibition was inactive: -19.2%.

For `CCN(CC)C(=S)SC(NC=O)C(Cl)(Cl)Cl` (stereo unspecified), the inhibition is inactive: 27.2%.

With `O=C(OC1CN2CCC1CC2)c1cccc2[nH]cnc12` (stereo unspecified), the inhibition was inactive: -2.03%.

As for `ClCCSc1nnc(-c2cccnc2)o1`, the inhibition is inactive: -20.3%.

Regarding `CC(C)c1ccc(OP(=O)(Nc2ccccn2)Oc2ccccc2F)cc1` (stereo unspecified), the inhibition is inactive: -4.67%.

For the molecule `Cc1ccc(OP(=O)(Nc2ccc([N+](=O)[O-])cn2)Oc2ccc(C)cc2)cc1`, the inhibition is inactive: -0.498%.

Consider `Cc1ccc2nc3c(c(C)c2c1)CC(C(Cl)Cl)S3` (stereo unspecified), for which the inhibition is inactive: -17.8%.

With `COc1cc(C(=O)NCC2(N3CCOCC3)CCCCC2)ccc1OCC(C)C`, the inhibition was inactive: 10.6%.

For `C[As](=O)(O)c1cccc(C(=O)O)c1`, the inhibition was inactive: 17.6%.

Consider `O=[As](O)(c1ccc(O)cc1)c1ccccc1O`, for which the inhibition was inactive: -0.49%.

As for `Cc1cc(SC(NC=O)C(Cl)(Cl)Cl)ncn1` (stereo unspecified), the inhibition was inactive: 2.14%.

`O=P(Nc1ccccn1)(c1cccc2ccccc12)c1cccc2ccccc12`: the inhibition was inactive: -33.2%.

Consider `CCOC(=O)Nc1cccc([As](=O)(O)O)c1`, for which the inhibition is inactive: 8.26%.

Regarding `Cc1cc(SC(NC(=O)c2ccccc2)C(Cl)(Cl)Cl)nc(C(C)C)n1` (stereo unspecified), the inhibition was inactive: 2.88%.

As to `CCCCOc1ccc(C(=O)NCC2(N3CCCCC3)CCCCC2)cc1OC`, the inhibition is inactive: 1.76%.

For the molecule `CCOC(=O)Nc1ccc([As](=O)(O)O)c(O)c1`, the inhibition is inactive: -19.2%.

On to `CCC(C)N(CC(C)C)C(=S)SC(NC(C)=O)C(Cl)(Cl)Cl` (stereo unspecified), for which the inhibition is inactive: 9.41%.

Regarding `O=C(OC1CN2CCC1CC2)c1cccc([N+](=O)[O-])c1` (stereo unspecified), the inhibition is inactive: -20.4%.

For `CCOC(=O)c1ccc(NC(=O)C(C)(CCl)SC)cc1` (stereo unspecified), the inhibition was inactive: -1.72%.

As to `O=C(Nc1ccncc1[N+](=O)[O-])c1ccc([N+](=O)[O-])cc1[N+](=O)[O-]`, the inhibition was inactive: 30%.

In the case of `O=C(COc1ccccc1)OC1CN2CCC1CC2` (stereo unspecified), the inhibition was inactive: 21%.

With `COP1(=S)c2c(C)nn(CCC#N)c2N=C(c2ccc(F)cc2)N1C` (stereo unspecified), the inhibition was inactive: 20%.

Take `CN(C(=O)Cc1ccc(Cl)c(Cl)c1)[C@@H]1CCCC[C@H]1N1CCCC1`: the inhibition was inactive: 13.5%.

Consider `CC(C)/C=N\N=C(\N)N[N+](=O)[O-]`, for which the inhibition was inactive: 13.3%.

Consider `CC1(CBr)Cn2c(nc3ccccc3c2=O)S1` (stereo unspecified), for which the inhibition is inactive: 3.73%.

For the molecule `O=[As](O)(c1ccccc1Br)c1ccccc1Br`, the inhibition is inactive: -1.1%.

For the molecule `COc1ccccc1CNC(=O)COC(=O)C(O)(c1ccccc1)c1ccccc1`, the inhibition was inactive: 9.87%.

In the case of `CC(C)(C)C(=O)NC(Sc1ncccn1)C(Cl)(Cl)Cl` (stereo unspecified), the inhibition is inactive: 8.11%.

Consider `Clc1n[nH]nc1-c1nn[nH][15n]1`, for which the inhibition is inactive: -16.1%.

Turning to `CCOP(=O)(NC(=NC(C)c1ccccc1)NC(C)c1ccccc1)OCC` (stereo unspecified), the inhibition is inactive: -5.51%.

As to `CCC1=CC2Cc3nc4ccc(Cl)cc4c(N)c3C(C1)C2` (stereo unspecified), the inhibition was active: 83.6%.

As for `O=P1(Nc2ccccn2)COc2ccccc2OC1`, the inhibition was inactive: 1.07%.

Take `CCOP(=O)(Nc1ccc(C)cn1)OCC`: the inhibition was inactive: 32.5%.

On to `CN(CCCl)Cc1cc(Cl)c(NC2=NCCN2)c(Cl)c1`, for which the inhibition is inactive: -7.24%.

Take `Nc1cccc([As](=O)(O)c2ccccc2)c1`: the inhibition is inactive: 19.2%.

For the molecule `Cc1ccc(OCC(=O)OC2CN3CCC2CC3)cc1` (stereo unspecified), the inhibition is inactive: -4.94%.

In the case of `O=[As](O)(c1cccs1)c1cccs1`, the inhibition was inactive: 10.5%.

With `NS(=O)(=O)c1cccc(NC(=O)COC(=O)C(O)(c2ccccc2)c2ccccc2)c1`, the inhibition is inactive: -21%.

Turning to `O=P1(Nc2ccc(Br)cn2)COc2ccccc2OC1`, the inhibition was inactive: 2.05%.

With `O=P1(Nc2ncccn2)COc2ccccc2OC1`, the inhibition is inactive: -37.9%.

Consider `CN(C)C1(CNC(=O)c2ccc(S(C)(=O)=O)cc2)CCCCC1`, for which the inhibition is inactive: -19.5%.

On to `O=C(/C=C/c1ccccc1)OC1CN2CCC1CC2` (stereo unspecified), for which the inhibition is inactive: 23.7%.

For the molecule `Cc1ccc(C(=O)OC2CN3CCC2CC3)cc1` (stereo unspecified), the inhibition is inactive: 7.3%.

In the case of `CC1CCC(C(C)C)C(OP(=O)(Nc2ccccn2)c2ccccc2)C1` (stereo unspecified), the inhibition was inactive: 32.2%.

In the case of `Cc1nn(-c2ccccc2)c2c1P(=O)(N1CCOCC1)N(C)C(c1ccccc1)=N2` (stereo unspecified), the inhibition was inactive: 12%.

With `CN(C(=O)Cc1ccccc1)[C@@H]1CC[C@]2(CCCO2)C[C@H]1N1CCCC1`, the inhibition was inactive: -9.27%.

Take `CCOP1(=S)c2c(C)nn(CCC#N)c2N=C(c2ccc(F)cc2)N1C` (stereo unspecified): the inhibition is inactive: 5.51%.

For `N#CCCN(C(=O)COC(=O)C(O)(c1ccccc1)c1ccccc1)c1ccc(F)cc1`, the inhibition is inactive: -9.25%.

Turning to `CN(C(=O)Cc1ccc(Cl)c(Cl)c1)[C@H]1CC[C@@]2(CCCO2)C[C@@H]1N1CCCC1`, the inhibition was inactive: 11.3%.

Consider `O=[N+]([O-])c1ccc2c(c1)nnn2O`, for which the inhibition was inactive: 7.8%.

Consider `CN(C)C(=O)c1cc([N+](=O)[O-])cc2c1-c1c(cc([N+](=O)[O-])cc1[N+](=O)[O-])C2=O`, for which the inhibition was active: 82.1%.

For `NC(=O)Nc1ccc([As](=O)(O)O)cc1`, the inhibition was inactive: 7.1%.

Consider `O=C(O)COc1ccc([As](=O)(O)O)cc1[N+](=O)[O-]`, for which the inhibition is inactive: -10.7%.

Regarding `Nc1ccccc1[As](=O)(O)c1ccccc1`, the inhibition was inactive: -2.66%.

As to `O=P(Nc1nccs1)(Oc1ccccc1)Oc1ccccc1`, the inhibition is inactive: -19.8%.

Consider `O=P(Nc1nccs1)(c1ccccc1)c1nc2ccccc2s1` (stereo unspecified), for which the inhibition was inactive: 13.5%.

Regarding `CCOP1(=S)c2c(C)nn(CCC#N)c2N=C(c2ccccc2F)N1C` (stereo unspecified), the inhibition is inactive: -3.27%.

Take `CS(=O)(=O)c1cc([N+](=O)[O-])c2no[n+]([O-])c2c1`: the inhibition was inactive: -0.415%.

Regarding `CCOP(=O)(Nc1cccc2ccccc12)OCC`, the inhibition was inactive: -2.28%.

For `COc1cc(C2NCCC3(OCCO3)C2(C)C)cc(OC)c1OC` (stereo unspecified), the inhibition was inactive: 13.6%.

Take `Cc1ccc(NCCc2c([N+](=O)[O-])cc([N+](=O)[O-])cc2[N+](=O)[O-])cc1`: the inhibition was inactive: 10.6%.

Take `CCCOP(=S)(Nc1nc(N)cc(=O)[nH]1)OCCC`: the inhibition was inactive: 12.6%.

Regarding `Cc1cccc(OCC(=O)OC2CN3CCC2CC3)c1` (stereo unspecified), the inhibition was inactive: 13.2%.

For `O=[As](O)(c1cccc(O)c1)c1cccc(O)c1`, the inhibition was inactive: -6.09%.

Consider `O=C(OC1CN2CCC1CC2)c1ccc(Cl)cc1` (stereo unspecified), for which the inhibition is inactive: 19.9%.

Take `CS(=O)(=O)c1ccc(Cl)c(NC(=O)COC(=O)C(O)(c2ccccc2)c2ccccc2)c1`: the inhibition is inactive: 22%.

Consider `O=[As](O)(O)c1cccnc1`, for which the inhibition was inactive: -12.3%.

For the molecule `COc1cc(C(=O)NCC2(N3CCOCC3)CCCCC2)cc(Cl)c1OC(C)C`, the inhibition is inactive: -6.88%.

As to `CC(=O)Nc1ccc(Oc2c([N+](=O)[O-])cc([N+](=O)[O-])cc2[N+](=O)[O-])cc1`, the inhibition is inactive: 18.4%.

For `CC(=O)Nc1ccc([As](=O)(O)O)c(O)c1`, the inhibition was inactive: -4.3%.

With `C[C@H]1OP(=O)(Oc2ccccc2)C[C@@H]2O[C@@H]21` (stereo partly specified), the inhibition is inactive: 7.99%.

For the molecule `C[C@@H]1C=CCP(=O)(Oc2ccccc2)O1` (stereo partly specified), the inhibition was inactive: 1.43%.

Consider `Cc1ccccc1CN(C)C(=O)COC(=O)C(O)(c1ccccc1)c1ccccc1`, for which the inhibition is inactive: -10.1%.

In the case of `CC(=O)c1ccc(N2CC2c2ccncc2)cc1` (stereo unspecified), the inhibition is inactive: 0.744%.

As for `CC(C)(C)C(=O)NC(Sc1ccccc1)C(Cl)(Cl)Cl` (stereo unspecified), the inhibition is inactive: 10.3%.

Consider `CCOc1ccc(C2=NCC(CBr)S2)cc1` (stereo unspecified), for which the inhibition is inactive: -18%.

In the case of `O=P1(Nc2nc3ccc(Cl)cc3s2)COc2ccccc2O1` (stereo unspecified), the inhibition was inactive: 22.7%.

Consider `CN(C)C(=O)Oc1noc2ccccc12`, for which the inhibition is inactive: 16.7%.

On to `CC(NC(=O)COC(=O)C(O)(c1ccccc1)c1ccccc1)c1ccccc1` (stereo unspecified), for which the inhibition was inactive: -0.036%.

As for `Cc1ccccc1OP(=O)(Nc1ccccn1)Oc1ccccc1C`, the inhibition is inactive: 15.6%.

Regarding `CCC(=O)N1C2C3N(C(=O)CC)C1C1N(C(=O)CC)C(C(N1C(=O)CC)N3C(=O)CC)N2C(=O)CC`, the inhibition was inactive: -1.29%.

For the molecule `O=C(OC1CN2CCC1CC2)c1ccccc1` (stereo unspecified), the inhibition was inactive: -5.84%.

Regarding `CC(=O)NC(SC(=S)N(CC(C)C)CC(C)C)C(Cl)(Cl)Cl` (stereo unspecified), the inhibition is inactive: 5.17%.

As for `Cc1ccc(OP(=O)(Nc2ccccn2)Oc2ccc(C)cc2)cc1`, the inhibition is inactive: -3.33%.

For `COC(=O)c1cc2c(s1)N=C(c1ccccc1)N(C)P2(=O)N1CCOCC1` (stereo unspecified), the inhibition was inactive: 6.49%.

Consider `Cc1ccc(NP(=O)(Oc2cccc(C)c2)Oc2cccc(C)c2)nc1`, for which the inhibition was inactive: 28.2%.

Regarding `CCOC(=O)NC(Sc1ccccc1)C(Cl)(Cl)Cl` (stereo unspecified), the inhibition was inactive: 3.01%.

On to `c1ccc(-c2nn[nH]n2)c(-c2nn[nH]n2)c1`, for which the inhibition is inactive: -12.7%.

For `O=C(NC1CCS(=O)(=O)C1)NP(=S)(Oc1ccccc1)Oc1ccccc1` (stereo unspecified), the inhibition is inactive: 3.17%.

As to `CCNC(=S)/N=C(\N)N[N+](=O)[O-]`, the inhibition is inactive: -12.4%.

`O=C(OC1CN2CCC1CC2)c1cccc(Cl)c1` (stereo unspecified): the inhibition was inactive: 3.46%.

As to `C(Cc1nn[nH]n1)Cc1nn[nH]n1`, the inhibition was inactive: 2.1%.

`Nc1ccc([As](=O)(O)c2ccc([N+](=O)[O-])cc2)cc1`: the inhibition was inactive: 10.2%.

For the molecule `O=[As](O)(c1ccccc1)c1ccc(O)cc1`, the inhibition is inactive: -1.62%.
